Laboratory results published in patent US6998423B2, “Prevention of loss and restoration of bone mass by certain prostaglandin agonists” (priority 1996, dated 2006).

System: Bone Morphogenetic Protein 7 (BMP-7) expression in wild type 293S cells
Assay: Induction of BMP-7 expression (Northern blot) in wild type (parental) 293S cells
Type: cell-based, human
Details: parental 293S cell line; 10^−6M; RNA extracted at 8, 16 and 24 hours; Northern blot with 32P-labeled BMP-7 probe
Method: Methods: 293S and EP2 293S cells were grown in Dulbecco's Modified Egale medium (DMEM, Gibco, BRL; Gaithersburg, Md.). One day prior to treatment with PGE2or a prostaglandin agonist, cells were plated at a density of 1.5×10^6 cells /10 cm dish. […] Cells were harvested and RNA extracted at 8, 16 and 24 hours. Northern blot analysis of total ([…] ) was carried out by probing the blots with ^32P-labeled BMP-7 probe. The blots were normalized for RNA loading by hybridization with ^32P-labeled 18s ribosomal RNA probe. […] Given the known role of BMP-7 in kidney regeneration and the ability of a prostaglandin agonist to induce BMP-7 expression in 293S kidney cells in a time and receptor specific manner indicates a role for a prostaglandin agonist in kidney regeneration.

Compound: CCCCC[C@H](O)/C=C/[C@H]1[C@H](O)CC(=O)[C@@H]1C/C=C\CCCC(=O)O [PGE2, prostaglandin E2]
- induction of the expression of BMP-7: not in the parental cell line
